{"source": "PubChem BioAssay (NCI)", "experiment_in_all_cases": "DTP human tumour cell line panel, 48 h", "key": {"SK-MEL-2 melanoma": {"test_system": "SK-MEL-2 melanoma"}, "SK-MEL-28 melanoma": {"test_system": "SK-MEL-28 melanoma"}, "UACC-62 melanoma": {"test_system": "UACC-62 melanoma"}, "SF-539 CNS": {"test_system": "SF-539 CNS"}, "SW-620 colon": {"test_system": "SW-620 colon"}, "MALME-3M melanoma": {"test_system": "MALME-3M melanoma"}, "NCI-H23 lung": {"test_system": "NCI-H23 lung"}, "KM12 colon": {"test_system": "KM12 colon"}, "SK-MEL-5 melanoma": {"test_system": "SK-MEL-5 melanoma"}, "MOLT-4 leukemia": {"test_system": "MOLT-4 leukemia"}, "COLO 205 colon": {"test_system": "COLO 205 colon"}, "UACC-257 melanoma": {"test_system": "UACC-257 melanoma"}, "A498 renal": {"test_system": "A498 renal"}, "U251 CNS": {"test_system": "U251 CNS"}, "786-0 renal": {"test_system": "786-0 renal"}, "MDA-MB-435": {"test_system": "MDA-MB-435"}, "TK-10 renal": {"test_system": "TK-10 renal"}, "OVCAR-5 ovarian": {"test_system": "OVCAR-5 ovarian"}, "HCC-2998 colon": {"test_system": "HCC-2998 colon"}, "LOX IMVI melanoma": {"test_system": "LOX IMVI melanoma"}, "OVCAR-8 ovarian": {"test_system": "OVCAR-8 ovarian"}, "DU-145 prostate": {"test_system": "DU-145 prostate"}, "SNB-75 CNS": {"test_system": "SNB-75 CNS"}, "NCI/ADR-RES ovarian": {"test_system": "NCI/ADR-RES ovarian"}, "PC-3 prostate": {"test_system": "PC-3 prostate"}, "BT-549 breast": {"test_system": "BT-549 breast"}, "OVCAR-3 ovarian": {"test_system": "OVCAR-3 ovarian"}, "CAKI-1 renal": {"test_system": "CAKI-1 renal"}, "A549 NSCLC": {"test_system": "A549 NSCLC"}, "HL-60(TB) leukemia": {"test_system": "HL-60(TB) leukemia"}}, "note": "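A five-concentration, 48-hour dose response in 96-well plates underlies each endpoint, interpolated linearly between surrounding concentrations. GI50: concentration for 50% inhibition of growth. TGI denotes the concentration required for complete inhibition of growth.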", "data": [{"compound": "O=[N+]([O-])c1cc([N+](=O)[O-])c(-c2nc(Cl)c3c([N+](=O)[O-])cc([N+](=O)[O-])cc3[n+]2[O-])c([N+](=O)[O-])c1", "values": [{"measurement": "GI50", "setting": "SK-MEL-2 melanoma", "value": 16.3, "unit": "µM"}, {"measurement": "TGI", "setting": "SK-MEL-2 melanoma", "value": 22.9, "unit": "µM"}, {"measurement": "GI50", "setting": "SK-MEL-28 melanoma", "value": 1.81, "unit": "µM"}, {"measurement": "TGI", "setting": "SK-MEL-28 melanoma", "value": 3.4, "unit": "µM"}, {"measurement": "GI50", "setting": "UACC-62 melanoma", "value": 16.4, "unit": "µM"}, {"measurement": "TGI", "setting": "UACC-62 melanoma", "value": 28.6, "unit": "µM"}, {"measurement": "GI50", "setting": "SF-539 CNS", "value": 3.91, "unit": "µM"}, {"measurement": "TGI", "setting": "SF-539 CNS", "value": 9.4, "unit": "µM"}, {"measurement": "GI50", "setting": "SW-620 colon", "value": 2.1, "unit": "µM"}, {"measurement": "TGI", "setting": "SW-620 colon", "value": 4.07, "unit": "µM"}, {"measurement": "GI50", "setting": "MALME-3M melanoma", "value": 1.9, "unit": "µM"}, {"measurement": "TGI", "setting": "MALME-3M melanoma", "value": 3.54, "unit": "µM"}, {"measurement": "GI50", "setting": "NCI-H23 lung", "value": 2.84, "unit": "µM"}, {"measurement": "TGI", "setting": "NCI-H23 lung", "value": 6.86, "unit": "µM"}, {"measurement": "GI50", "setting": "KM12 colon", "value": 6.79, "unit": "µM"}, {"measurement": "TGI", "setting": "KM12 colon", "value": 18.3, "unit": "µM"}, {"measurement": "GI50", "setting": "SK-MEL-5 melanoma", "value": 2.91, "unit": "µM"}, {"measurement": "TGI", "setting": "SK-MEL-5 melanoma", "value": 6.58, "unit": "µM"}, {"measurement": "GI50", "setting": "MOLT-4 leukemia", "value": 0.522, "unit": "µM"}, {"measurement": "TGI", "setting": "MOLT-4 leukemia", "value": 1.42, "unit": "µM"}, {"measurement": "GI50", "setting": "COLO 205 colon", "value": 1.75, "unit": "µM"}, {"measurement": "TGI", "setting": "COLO 205 colon", "value": 3.23, "unit": "µM"}, {"measurement": "GI50", "setting": "UACC-257 melanoma", "value": 2.2, "unit": "µM"}, {"measurement": "TGI", "setting": "UACC-257 melanoma", "value": 4.59, "unit": "µM"}, {"measurement": "GI50", "setting": "A498 renal", "value": 13, "unit": "µM"}, {"measurement": "TGI", "setting": "A498 renal", "value": 27.8, "unit": "µM"}, {"measurement": "GI50", "setting": "U251 CNS", "value": 1.8, "unit": "µM"}, {"measurement": "TGI", "setting": "U251 CNS", "value": 3.35, "unit": "µM"}, {"measurement": "GI50", "setting": "786-0 renal", "value": 1.69, "unit": "µM"}, {"measurement": "TGI", "setting": "786-0 renal", "value": 3.11, "unit": "µM"}, {"measurement": "GI50", "setting": "MDA-MB-435", "value": 1.67, "unit": "µM"}, {"measurement": "TGI", "setting": "MDA-MB-435", "value": 3.16, "unit": "µM"}, {"measurement": "GI50", "setting": "TK-10 renal", "value": 2.09, "unit": "µM"}, {"measurement": "TGI", "setting": "TK-10 renal", "value": 4.23, "unit": "µM"}, {"measurement": "GI50", "setting": "OVCAR-5 ovarian", "value": 2.45, "unit": "µM"}, {"measurement": "TGI", "setting": "OVCAR-5 ovarian", "value": 5.09, "unit": "µM"}, {"measurement": "GI50", "setting": "HCC-2998 colon", "value": 15.1, "unit": "µM"}, {"measurement": "TGI", "setting": "HCC-2998 colon", "value": 24, "unit": "µM"}, {"measurement": "GI50", "setting": "LOX IMVI melanoma", "value": 1.58, "unit": "µM"}, {"measurement": "TGI", "setting": "LOX IMVI melanoma", "value": 3.1, "unit": "µM"}, {"measurement": "GI50", "setting": "OVCAR-8 ovarian", "value": 1.8, "unit": "µM"}, {"measurement": "TGI", "setting": "OVCAR-8 ovarian", "value": 3.33, "unit": "µM"}, {"measurement": "GI50", "setting": "DU-145 prostate", "value": 6.14, "unit": "µM"}, {"measurement": "TGI", "setting": "DU-145 prostate", "value": 16.9, "unit": "µM"}, {"measurement": "GI50", "setting": "SNB-75 CNS", "value": 3.01, "unit": "µM"}, {"measurement": "TGI", "setting": "SNB-75 CNS", "value": 10.7, "unit": "µM"}, {"measurement": "GI50", "setting": "NCI/ADR-RES ovarian", "value": 1.31, "unit": "µM"}, {"measurement": "TGI", "setting": "NCI/ADR-RES ovarian", "value": 3.74, "unit": "µM"}, {"measurement": "GI50", "setting": "PC-3 prostate", "value": 1.76, "unit": "µM"}, {"measurement": "TGI", "setting": "PC-3 prostate", "value": 3.2, "unit": "µM"}, {"measurement": "GI50", "setting": "BT-549 breast", "value": 1.92, "unit": "µM"}, {"measurement": "TGI", "setting": "BT-549 breast", "value": 3.45, "unit": "µM"}, {"measurement": "GI50", "setting": "OVCAR-3 ovarian", "value": 1.8, "unit": "µM"}, {"measurement": "TGI", "setting": "OVCAR-3 ovarian", "value": 3.27, "unit": "µM"}, {"measurement": "GI50", "setting": "CAKI-1 renal", "value": 1.83, "unit": "µM"}, {"measurement": "TGI", "setting": "CAKI-1 renal", "value": 3.23, "unit": "µM"}, {"measurement": "GI50", "setting": "A549 NSCLC", "value": 11.6, "unit": "µM"}, {"measurement": "TGI", "setting": "A549 NSCLC", "value": 26.2, "unit": "µM"}, {"measurement": "GI50", "setting": "HL-60(TB) leukemia", "value": 0.299, "unit": "µM"}, {"measurement": "TGI", "setting": "HL-60(TB) leukemia", "value": 0.914, "unit": "µM"}]}]}
